# scFv variants of Ab-14 (heavy chain) against a SARS-CoV-2 spike peptide

Values reported by Li et al. 2023, doi:10.1038/s41467-023-39022-2 (FLAb copy).

Binding partner: SARS-CoV-2 spike HR2 peptide, sequence PDVDLGDISGINAS.

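Designed CDR sequences, proposed from the first random library and measured here. Group labels follow the data file (Ctrl: baseline library sampled from a position-specific scoring matrix, with some repeated check sequences; Rand: our label for a block that the file lists under HC and that is probably the random mutants of the ten best first-round binders; En: ensemble of fine-tuned language models; GP: Gaussian process model; GPLM: also part of the Gaussian process libraries; HC: hill climbing; Gen: genetic algorithm; Gibbs: Gibbs sampling; a sequence that several methods proposed may carry one label only). In AlphaSeq, yeast of one mating type display the scFv and yeast of the other type display the target. Pairs that bind mate more often; barcode pairs of the diploids are counted by sequencing. The ratio of observed to expected reads was calibrated, replicate by replicate, on BCL2-family standards whose Kd was known from biolayer interferometry. Each pool was mated in six replicate cultures.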

The variants keep the light chain, the linker and the frameworks of Ab-14 (scFv order VH, a (GGGGS)3 linker, VL).
VH: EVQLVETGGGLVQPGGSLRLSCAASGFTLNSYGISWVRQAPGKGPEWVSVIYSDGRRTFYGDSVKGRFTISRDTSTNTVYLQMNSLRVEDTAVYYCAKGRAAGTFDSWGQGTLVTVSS
VL: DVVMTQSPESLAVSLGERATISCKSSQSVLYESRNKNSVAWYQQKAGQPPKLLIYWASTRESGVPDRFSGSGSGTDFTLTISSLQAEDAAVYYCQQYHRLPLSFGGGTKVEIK

The parent's heavy chain CDRs are GFTLNSYGIS, VIYSDGRRTFYGDSVK, GRAAGTFDS; each variant's own CDRs replace them letter for letter. Numbers give log10(Kd / nM), so 0 is 1 nM and 3 is 1 µM. Smaller is tighter. A pair that was not seen in that replicate is written "n.d."; this usually means weak binding, but a binder can also be missed. The authors averaged sequences with at least three values out of six and counted those with two or fewer as poor binders.

| CDR-H1 | CDR-H2 | CDR-H3 | group | log10 Kd, replicates | signal with controls |
|---|---|---|---|---|---|
| GFTLNSYGIS | VIYSDGRRTFYSDSVK | GQSAGTFDS | GPLM_Gen | 3.33 / 1.12 / 0.88 / 1.49 / 1.67 / 1.50 | 0 of 18 |
| GFTLNDYGIS | VIYSDGRRTFYGDSVK | GRLAGTFDS | Ctrl+GPLM_Gen | 0.80 / 0.67 / n.d. / 1.74 / 0.31 / 1.01; 0.27 / 0.45 / 0.32 / 0.12 / 0.40 / 0.25 | 0 of 36 |
| GFTLDSYGIS | VIYSDGRRTFYSDSVK | GRTAGTFDS | Ctrl+GPLM_Gen | n.d. / 0.25 / -0.25 / -0.07 / 0.17 / 1.11; 0.46 / 0.24 / 0.48 / 0.33 / 0.37 / 0.87 | 0 of 36 |
| GKDIEEYGIS | VIYADGMRQAYLDKVK | GNNGGSGSF | En_Gibbs | n.d. / n.d. / n.d. / n.d. / n.d. / n.d. | 0 of 18 |
| GFNLNEYGIS | VIYADGRRTFYADSVK | GGQAGTFDM | En_HC | -0.15 / n.d. / -0.37 / -0.03 / 0.66 / 1.22 | 0 of 18 |
| GFSLNMYGIS | VIYSDGRRTFYGDSVK | GREAGTFDT | GP_Gibbs | n.d. / -0.37 / 0.40 / 0.51 / 0.61 / 0.78 | 0 of 18 |
| GFDLNEYGIS | VIYADGRRTAYVDSVK | GEIAGTFDV | En_HC | 0.15 / -0.20 / -0.32 / -0.55 / -0.19 / -0.04 | 1 of 18 (1.57) |
| GFDLEDYGIS | VIYADGKRTAYADSVK | GEIAGTFDV | En_HC | -0.33 / -0.33 / 0.08 / -0.38 / -0.50 / -0.43 | 0 of 18 |
| GFTLNSYGIS | VIYSDGRRTFYTDRVK | GEAAGTFDS | GPLM_Gen | n.d. / 1.28 / 2.57 / 1.64 / 1.91 / 0.85 | 1 of 18 (2.09) |
| GFDLNEYGIS | VIYADGRRTFYADSVK | GTVAGTFVS | En_HC | -0.23 / -0.69 / -0.41 / -0.58 / -0.72 / -0.38 | 0 of 18 |
| GFDLNEYGIS | VIYADGRRTAYIDSVK | GEAAGTFDF | En_HC | -0.15 / -0.64 / -0.98 / -0.81 / -0.49 / -0.64 | 0 of 18 |
| TFTLNSYGIS | VIYSDGRRTFYTDSVK | GDAAGEFDS | Ctrl | n.d. / n.d. / n.d. / n.d. / n.d. / n.d. | 0 of 18 |
| GFNLDEYGIS | VIYADGKRTFYSDNVK | GEVAGTFDI | En_HC | -0.33 / -0.13 / -0.25 / -0.64 / -0.69 / -0.45 | 0 of 18 |
| GFDLHSYGIS | VIYSDGRRTFYGVSVK | GRAAGWFNS | Rand | n.d. / 1.23 / n.d. / n.d. / n.d. / n.d. | 0 of 18 |
| GFDLGEYGIS | VIYADGHRRAYSDDVK | GAHSGSVQT | En_Gibbs | n.d. / n.d. / n.d. / n.d. / n.d. / n.d. | 0 of 18 |
| GFSLNEYGIS | VIYSDGRRTFYGDDVK | GRNAGTFDS | GP_Gen | 1.00 / 1.75 / 0.32 / 2.21 / n.d. / 2.48 | 0 of 18 |
| GFTLNSYGIS | VDYSDGMRTFYGDSVK | VRAAGTFDS | Ctrl | 1.20 / n.d. / n.d. / n.d. / n.d. / n.d. | 0 of 18 |
| GFELNEYGIS | VIYSDGRRTFYSDSVK | GKAAGTFDS | GP_Gen | 0.34 / 0.23 / -0.16 / 0.14 / -0.31 / -0.17 | 0 of 18 |
| GFTLDSYGIS | VIYSDGRRTFYGDSVK | GRIAGTFDR | GP_HC | 2.61 / 1.15 / 1.52 / n.d. / 1.59 / 2.36 | 0 of 18 |
| GFSIDEYGIS | VIYADGNRSAYIDAVK | GNYGSDFLE | En_Gibbs | n.d. / n.d. / n.d. / n.d. / n.d. / n.d. | 0 of 18 |
| GFDLEEYGIS | VIYADGFRTAYKNQVK | GSFMIDTVV | En_Gibbs | n.d. / n.d. / n.d. / n.d. / n.d. / n.d. | 0 of 18 |
| GFDLNEYGIS | VIYADGMRTAYVDDVK | GGNAGTFDV | En_Gen | n.d. / 0.27 / 0.22 / 1.22 / 0.61 / n.d. | 0 of 18 |
| GFDLNEYGIS | VIYADGKRTAYSDSVK | GEVAGTFVS | En_HC | -0.16 / -0.51 / -0.33 / -0.43 / -0.39 / -0.13 | 1 of 18 (2.13) |
| GFDLNEYGIS | VIYADGMRTAYSDSVK | GENAGTFDL | En_Gen | -0.07 / -0.35 / -0.08 / -0.50 / -0.19 / 0.10 | 1 of 18 (2.55) |
| GFDLNEYGIS | VIYADGQRTAYADDVK | GNNAGTFDV | En_Gen | -0.14 / -0.82 / -0.91 / -0.84 / -1.00 / -0.66 | 0 of 18 |
| GFTLNDYGIS | VIYSDGRRTHYGDSVK | VRAAGTFDS | Ctrl | n.d. / n.d. / n.d. / n.d. / n.d. / n.d. | 0 of 18 |
| GFTLMSYGIS | VIYSDGRRTFYQDSVK | GRAAGTFFS | Ctrl | n.d. / 0.55 / n.d. / n.d. / n.d. / n.d. | 0 of 18 |
| GFSLNEYGIS | VIYSDGRRTFYEDDVK | GRTAGTFDS | GP_HC | 0.34 / 0.07 / 0.32 / 0.90 / 0.20 / 0.32 | 0 of 18 |
| GFSLESYGIS | VIYADGRRTFYGDSVK | GRAAGTFDS | GPLM_Gen | 0.25 / -0.34 / n.d. / -0.52 / -0.05 / -0.15 | 0 of 18 |
| DFTLSSYGIS | VIYSDGRRTFYGDSVK | GQEAGQFDS | Ctrl | n.d. / n.d. / 1.95 / n.d. / n.d. / n.d. | 0 of 18 |
| GFTLLSYGIS | VIYSDGHRTFYSDSVK | DSAMGTFDS | Ctrl | 0.35 / n.d. / 1.50 / n.d. / n.d. / n.d. | 0 of 18 |
| GFSLNSYGIS | VIYSDGRRTAYGDSVK | GRSAGTFDS | GP_Gen | 0.94 / n.d. / n.d. / 2.26 / 0.30 / n.d. | 0 of 18 |
| GFDLNEYGIS | VIYADGSRTFYADSVK | GETAGSFDQ | En_HC | -0.17 / 0.13 / -0.08 / -0.26 / 0.56 / 0.21 | 0 of 18 |
| GFDLNEYGIS | VIYADGRRTAYADSVK | GETAGTFDI | En_Gen | n.d. / n.d. / n.d. / n.d. / n.d. / n.d. | 0 of 18 |
| GFDLNEYGIS | VIYADGKRTFYSDKVK | GNVAGTFDI | En_HC | -0.99 / -1.07 / -1.18 / 0.23 / -0.45 / -0.52 | 0 of 18 |
| GFDLNEYGIS | VIYADGMRTVYADSVK | GETAGTFDQ | En_Gen | -0.20 / n.d. / 0.70 / 2.19 / 0.15 / 1.13 | 0 of 18 |
| GFTLNEYGIS | VIYSDGRRTFYGDSVK | GQAAATFDS | Ctrl | n.d. / n.d. / n.d. / n.d. / n.d. / n.d. | 0 of 18 |
| GFDLNEYGIS | VIYADGKRTAYSDSVK | GNTAGTFDL | En_Gen | 0.02 / -0.06 / -0.40 / -0.56 / -0.59 / -0.33 | 0 of 18 |
| GFDLNEYGIS | VIYADGRRTAYSDSVK | GEAAGTFDF | En_HC | -0.06 / -0.07 / 0.01 / 0.08 / -0.20 / -0.35 | 0 of 18 |

The closing 3 entries, repeated:

{"CDR-H1": "GFTLNEYGIS", "CDR-H2": "VIYSDGRRTFYGDSVK", "CDR-H3": "GQAAATFDS", "group": "Ctrl", "log10 Kd, replicates": "n.d. / n.d. / n.d. / n.d. / n.d. / n.d.", "signal with controls": "0 of 18"}
{"CDR-H1": "GFDLNEYGIS", "CDR-H2": "VIYADGKRTAYSDSVK", "CDR-H3": "GNTAGTFDL", "group": "En_Gen", "log10 Kd, replicates": "0.02 / -0.06 / -0.40 / -0.56 / -0.59 / -0.33", "signal with controls": "0 of 18"}
{"CDR-H1": "GFDLNEYGIS", "CDR-H2": "VIYADGRRTAYSDSVK", "CDR-H3": "GEAAGTFDF", "group": "En_HC", "log10 Kd, replicates": "-0.06 / -0.07 / 0.01 / 0.08 / -0.20 / -0.35", "signal with controls": "0 of 18"}

Three control strains display no target. For all heavy chain designs, 1% of the pairings with them gave a signal, with a median of 2.08 and one signal in twenty below 0.84, so weak values seen in few replicates may be background. For each scFv, signals with the empty controls are counted beside the result, with their mean in brackets. A sequence measured in both rounds can read differently, since the two assays cover different ranges. Of ten entries with the parent sequence, four were seen in most replicates (averages 0.34 to 2.37), three in one and three in none, so single entries are noisy. Some sequences occur more than once in the pool; their replicates are listed entry by entry, parted by semicolons.